Measured values taken from publication PMC3880646 (Journal of medicinal chemistry, 2013).
Read-outs that look alike come from different tables or passages of the source.

Tests used:
[1] = tested on: RS4;11 acute lymphoblastic leukemia xenograft; type: in vivo
[2] = tested on: SJSA-1 osteosarcoma tumor xenograft; type: in vivo

In the case of `CC(C)(C)C[C@@H]1N[C@@H](C(=O)N[C@H]2C[C@@](C)(O)C2)[C@H](c2cccc(Cl)c2F)[C@]12C(=O)Nc1cc(Cl)ccc12` [Compound 9], the antitumor activity ([1]; 100 mg/kg oral gavage daily for 3 weeks) is reported as “rapid and complete tumor regression”, the antitumor activity ([1]; 200 mg/kg oral gavage daily for 3 weeks) is reported as “rapid and complete tumor regression” and the antitumor activity ([2]; 10 mg/kg oral gavage daily for 2 weeks) is reported as “no significant activity”. For the same molecule, the antitumor activity ([2]; 30 mg/kg oral gavage daily for 2 weeks) was “effectively inhibited tumor growth” and the antitumor activity ([2]; 100 mg/kg oral gavage daily for 2 weeks) was “rapid and complete tumor regression”.
